According to patent publication EP0785952B1, “GRAFT CERAMIDE HAVING AN ANTI-ELASTASE PROPERTY” (dated 1996):
“And” between values parts separate entries of the source, which are not always exact repeats. Identical values can stand only once.

Amino acid sequences for entries named in this document (tags omitted). Residues count along the entry.
UniProt P00772, 27-266 limits assumed: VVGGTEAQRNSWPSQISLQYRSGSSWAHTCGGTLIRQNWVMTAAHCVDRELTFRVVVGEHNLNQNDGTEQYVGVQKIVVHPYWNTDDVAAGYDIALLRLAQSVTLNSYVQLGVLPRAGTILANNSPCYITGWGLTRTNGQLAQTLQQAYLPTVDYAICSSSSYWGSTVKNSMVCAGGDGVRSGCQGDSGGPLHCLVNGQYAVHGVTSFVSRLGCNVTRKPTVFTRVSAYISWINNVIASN

Biological target: elastase pancreatique (Sus scrofa, UniProt P00772)
Experiment: Diffusion of pancreatic elastase in an agarose gel containing insoluble orcein-stained elastin (lysis area)
Conditions: individual wells, lecture à t0 + 4 jours, Concentration GAG 0.15, GPFA016A 1.0000, HO3 0.12

`CCCCCCCCCCCCCCOCC(O)CNC(=O)CCCCCCCC(O)C(O)CCCCCCO` (stereo not drawn) was tested, and the “Diamètre 1” value was 8 mm^2, the “Diamètre 2” value was 8 mm^2 and 7 mm^2 (3×) and the Surface (surface de lyse) was 0.50 cm^2 and 0.44 cm^2 (3×).
